Screening data: PubChem, National Center for Advancing Translational Sciences (NCATS)
DT40 TDP1 no CPT: qHTS for Inhibitors of human tyrosyl-DNA phosphodiesterase 1 (TDP1): qHTS in cells in absence of CPT; DT40 Tdp1-/- hTDP1 cells, no CPT, ATP luminescence, 48 h; Potency, µM (titrated, usually from 46.2 µM), for the others: at the highest dose activity change, negative = growth inhibition, usual class: inhibitors; 420,000 compounds, 15% hits; AID 686978, 2013; further: potency means the concentration at half of the fitted maximal effect; on the % scale 0 is the no-effect control and ±100 the full control effect; nearly all actives have a fitted effect of over 55% in size
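Seeded 400 DT40-hTDP1 cells/well (vehicle DMSO, no 20 nM CPT); pinned compounds; ≥48 hr at 37 °C; CellTiter-Glo luminescence as viability measure.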
TDP1 block: blocks human tyrosyl-DNA phosphodiesterase 1. Potency, µM (highest dose often 130 µM), for the others: at the top dose activity change, negative = inhibition, most hits filed as inhibitors. recombinant TDP1, AlphaScreen DNA substrate cleavage. 350,000 compounds, 0.28% hits. Q9NUW8; further: potency means the concentration at half of the fitted maximal effect; on the % scale 0 is the no-effect control and ±100 the full control effect; nearly all actives have a fitted effect of over 40% in size
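Recombinant E. coli-expressed Tdp1 (1 nM) preincubated with compound 15 min at RT, then 5'-biotin/3'-phosphotyrosine-FITC DNA substrate (15 nM) added for 5 min. AlphaScreen beads (10 ug/ml) added, 10 min RT; tyrosine-FITC cleavage read as signal loss.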
TDP1 cell CPT: DT40-hTDP1 cell growth loss with CPT. chicken DT40 Tdp1-/-;hTDP1 cells + 20 nM CPT, ATP luminescence, 48 h. Potency, µM (series often up to 46.2 µM), for inactives: at the highest dose activity change, negative = growth inhibition, actives largely listed as inhibitors. 420,000 compounds, 12% hits. AID 686979; further: potency means the concentration at half of the fitted maximal effect; on the % scale 0 is the no-effect control and ±100 the full control effect; nearly all actives have a fitted effect of over 55% in size
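Chicken DT40 Tdp1-/- cells complemented with human TDP1, 400 cells/well, exposed to compounds plus 20 nM camptothecin for at least 48 h at 37 C; viability read as ATP content by CellTiter-Glo luminescence.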
uPA surface inh: inhibitors of cell surface uPA generation | 330,000 compounds, 0.31% hits | Potency, µM (doses to about 38.3 µM), for the others: at the top dose activity change, negative = inhibition, hits mostly inhibitors | cell surface uPA generation assay, qHTS | AID 540303; active means well fitted inhibition curve with a large enough effect; inconclusive means small, poorly fitted or top-dose-only effect; inactive means no such curve, though single readings can be large or run the other way; tested in mouse RAW 264.7 cells; further: potency means the concentration at half of the fitted maximal effect; on the % scale 0 is the no-effect control and ±100 the full control effect; nearly all actives have a fitted effect of over 55% in size
miR-21 reporter: raises the signal of a miR-21 reporter | Potency, µM (doses to about 38.3 µM), for inactives: top-dose reporter change, positive = more light | HeLa miR-21 FLuc reporter, luciferase, 48 h | AID 2288 | 340,000 tested, under 10 active; active = well fitted rising curve with a large enough effect; inconclusive = small, poorly fitted or top-dose-only effect; inactive = no such curve, though single readings can be large or run the other way;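 also: % of control where 0% means no effect; miR-21 action dims this reporter so a rising signal means less miR-21 action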
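HeLa miR-21-FLuc reporter line, endogenous miR-21; 2000 cells/well in DMEM/10% FBS; compound titration up to ~40uM final, 48 h, 37 degree Celsius; luciferase detection reagent, 15 min lysis, CCD luminescence.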
An asterisk follows results filed as active; [ ] = remark or other dose. An excerpt weighted towards active compounds, which were near 16% of everything screened. Unless noted, the call rests on the fitted dose curve; in most records, active means well fitted curve in the direction sought with a large enough effect; inconclusive means small, poorly fitted or top-dose-only effect, or another doubt; inactive means no such curve, though single readings can be large; an effect the other way counts as inactive or inconclusive.

NC(Cc1ccc(Cl)cc1)c1csc(Nc2ccc(C(=O)c3ccccc3)cc2)n1 (stereo unspecified) was read as DT40 TDP1 no CPT 21µM* and TDP1 cell CPT 21µM*.
For COC(=O)[C@H](CC(C)C)NC(=O)CC[C@H]1O[C@@H](n2cc(C)c(=O)[nH]c2=O)C[C@@H]1O the results were DT40 TDP1 no CPT 2% and TDP1 cell CPT -6%.
Screening NC(CO)c1csc(Nc2ccc(C(=O)c3ccccc3)cc2)n1 (stereo unspecified) returned DT40 TDP1 no CPT inconclusive and TDP1 cell CPT -2%.
For NC(Cc1ccccc1)c1csc(Nc2ccc(C(=O)c3ccccc3)cc2)n1 (stereo unspecified) the results were DT40 TDP1 no CPT 8.2µM* and TDP1 cell CPT 15µM*.
`COc1ccccc1CNC(=O)COC(=O)c1ccc([N+](=O)[O-])o1` gave DT40 TDP1 no CPT 13%, TDP1 block 1%[56.1 µM], TDP1 cell CPT -2% and uPA surface inh -10%.
`O=S1(=O)C[C@@H](N2CCCC2)[C@H](COCc2ccccc2)N1` gave DT40 TDP1 no CPT 13% and TDP1 cell CPT -27%.
O=S1(=O)C[C@@H](N2CCC(Cc3ccccc3)CC2)[C@H](COCc2ccccc2)N1 was read as DT40 TDP1 no CPT 23µM* and TDP1 cell CPT 18µM*.
For Cc1c(Cl)cccc1NC(=O)COC(=O)CN1C(=O)NC(C)(C)C1=O the results were DT40 TDP1 no CPT 22%, TDP1 block 2%, TDP1 cell CPT -5%, uPA surface inh -4% and miR-21 reporter 1%.
Screening NC(Cc1ccc(C(F)(F)F)cc1)c1csc(Nc2ccc(C(=O)NCCCO)cn2)n1 (stereo unspecified) returned DT40 TDP1 no CPT 16µM* and TDP1 cell CPT inconclusive.
`NC(Cc1ccc(C(F)(F)F)cc1)c1csc(Nc2ccc(C(=O)NCc3ccco3)cn2)n1` (stereo unspecified) gave DT40 TDP1 no CPT inconclusive and TDP1 cell CPT 15µM*.
`CC(N)c1csc(Nc2ccc(C(=O)NCCCO)cn2)n1` (stereo unspecified) gave DT40 TDP1 no CPT -11% and TDP1 cell CPT -14%.
Screening COc1ccc(NC(=O)c2ccc(NCCN3C(=O)CCC3=O)c([N+](=O)[O-])c2)cc1 returned DT40 TDP1 no CPT -14%, TDP1 block -13%, TDP1 cell CPT 16%, uPA surface inh -1% and miR-21 reporter -6%.
CC(C)[C@H]1COCCS(=O)(=O)N1Cc1ccccc1F was read as DT40 TDP1 no CPT inconclusive, TDP1 cell CPT -29% and uPA surface inh -19%.
Screening CCC(C)[C@H](NC(=O)N1CC(=O)Nc2ccccc21)C(=O)N[C@@H](C(=O)O)c1ccccc1 (stereo partly specified) returned DT40 TDP1 no CPT 29%, TDP1 block 4%, TDP1 cell CPT -24%, uPA surface inh 2% and miR-21 reporter -1%.
CC1(C(=O)Nc2ccccc2Cc2ccccc2)CCN1Cc1ccccc1Cl (stereo unspecified) was read as DT40 TDP1 no CPT 23µM* and TDP1 cell CPT inconclusive.

Fetched one by one from the list above, 4 records:
`CC(N)c1csc(Nc2ccc(C(=O)NCCCO)cn2)n1` (stereo unspecified) gave DT40 TDP1 no CPT -11% and TDP1 cell CPT -14%.
For COC(=O)[C@H](CC(C)C)NC(=O)CC[C@H]1O[C@@H](n2cc(C)c(=O)[nH]c2=O)C[C@@H]1O the results were DT40 TDP1 no CPT 2% and TDP1 cell CPT -6%.
`NC(Cc1ccc(C(F)(F)F)cc1)c1csc(Nc2ccc(C(=O)NCc3ccco3)cn2)n1` (stereo unspecified) gave DT40 TDP1 no CPT inconclusive and TDP1 cell CPT 15µM*.
Screening CCC(C)[C@H](NC(=O)N1CC(=O)Nc2ccccc21)C(=O)N[C@@H](C(=O)O)c1ccccc1 (stereo partly specified) returned DT40 TDP1 no CPT 29%, TDP1 block 4%, TDP1 cell CPT -24%, uPA surface inh 2% and miR-21 reporter -1%.

(more compounds)
For CCNC(=O)C1(C)CCCN1Cc1ccccc1Cl (stereo unspecified) the results were DT40 TDP1 no CPT inconclusive and TDP1 cell CPT 23µM*.
CCOc1ccc(N(C(=O)/C=C/C(=O)Nc2cc(C)on2)C(C(=O)NC2CCCC2)c2ccccc2C)cc1 (stereo unspecified) was read as DT40 TDP1 no CPT 16µM*, TDP1 block 4%, TDP1 cell CPT 16µM*, uPA surface inh 6% and miR-21 reporter 7%.
`CCc1ccc(C(C(=O)NC2CCCC2)N(C(=O)/C=C/C(=O)Nc2cc(C)on2)c2ccccc2C)cc1` (stereo unspecified) gave DT40 TDP1 no CPT 16µM*, TDP1 block -1%, TDP1 cell CPT 16µM*, uPA surface inh -12% and miR-21 reporter -6%.
CCCCN(C(=O)CCC(=O)Nc1cc(C)on1)C(C(=O)NC1CCCC1)c1ccccc1C (stereo unspecified) was read as DT40 TDP1 no CPT inconclusive, TDP1 block 5%, TDP1 cell CPT inconclusive and miR-21 reporter 11%.
For CC1(C)Cc2nc3oc4c(N(CCO)Cc5ccccc5)ncnc4c3cc2CO1 the results were DT40 TDP1 no CPT 21µM*, TDP1 block 6%, TDP1 cell CPT 21µM*, uPA surface inh -1% and miR-21 reporter -7%.
Screening COCCSc1ncnc2c1oc1nc3c(cc12)COC(C)(C)C3 returned DT40 TDP1 no CPT inconclusive, TDP1 block 3%, TDP1 cell CPT -28%, uPA surface inh inconclusive and miR-21 reporter -24%.
For CN(CC(=O)Nc1ccccc1N1CCOCC1)S(=O)(=O)c1ccc(F)cc1 the results were DT40 TDP1 no CPT 18µM*, TDP1 block 3%, TDP1 cell CPT 18µM*, uPA surface inh 0% and miR-21 reporter -2%.
For CCN(CC)S(=O)(=O)c1ccc(N2CCOCC2)c(NC(=O)CCC2CCCCC2)c1 the results were DT40 TDP1 no CPT inconclusive, TDP1 block 3%, TDP1 cell CPT 21µM*, uPA surface inh -7% and miR-21 reporter -5%.
CCN(CC)S(=O)(=O)c1ccc(N2CCOCC2)c(NC(=O)c2nn(C)c(=O)c3ccccc23)c1 was read as DT40 TDP1 no CPT -1%, TDP1 cell CPT -11% and uPA surface inh -16%.
For O=C(Cc1ccccc1F)Nc1cc(S(=O)(=O)N2CCCCC2)ccc1N1CCOCC1 the results were DT40 TDP1 no CPT 16µM* and TDP1 cell CPT 21µM*.
For CCN(CC)S(=O)(=O)c1ccc(N2CCOCC2)c(NC(=O)c2nn(C(C)C)c(=O)c3ccccc23)c1 the results were DT40 TDP1 no CPT 5.2µM* and TDP1 cell CPT 10µM*.
COc1ccccc1CC(=O)Nc1cc(S(=O)(=O)N2CCOCC2)ccc1N1CCOCC1 was read as DT40 TDP1 no CPT -4%, TDP1 block 3%, TDP1 cell CPT -22% and uPA surface inh -6%.
For CCN(CC)S(=O)(=O)c1ccc(N2CCOCC2)c(NC(=O)CC(C)(C)C)c1 the results were DT40 TDP1 no CPT 13%, TDP1 block 0%, TDP1 cell CPT -8%, uPA surface inh -2% and miR-21 reporter 0%.
`CSc1nccc(-c2c(-c3ccc(Cl)cc3)noc2C)n1` gave DT40 TDP1 no CPT inconclusive, TDP1 cell CPT inconclusive, uPA surface inh -13% and miR-21 reporter 2%.
Screening CCN(CC)S(=O)(=O)c1ccc(N2CCOCC2)c(NC(=O)Cc2cccc3ccccc23)c1 returned DT40 TDP1 no CPT 16µM*, TDP1 block 8%, TDP1 cell CPT inconclusive, uPA surface inh 6% and miR-21 reporter 0%.
